# Assay results from ChEMBL document CHEMBL2412952, “2-Substituted 4-hydroxybutanamides as potential inhibitors of γ-aminobutyric acid transporters mGAT1-mGAT4: synthesis and biological evaluation” (Bioorg Med Chem, 2013).
# Target: Sodium- and chloride-dependent GABA transporter 1 (Mus musculus, UniProt P31648)
# Experiment: Binding affinity to mouse GAT1 stably transfected in HEK293 cells by NO-711 binding assay
# Format: cell-based
smiles,measurement,value
COc1ccc(C(OCCN2CCC[C@H](C(=O)O)C2)(c2ccc(OC)cc2)c2ccc(OC)cc2)cc1,Ki,27.5 µM
